Source: patent US6180664A (priority 1996, dated 2001)

Experiments:
[1] = system: isolated rabbit aortic rings; experiment: vasodilating properties on isolated rabbit aortic rings; conditions: 50% effective concentration EC50 given as pD2 (concentration in log M); relaxation of phenylephrine-type contraction; cumulative concentrations 1 nM to 10 μM

Compound	pD2 value [1] [log M]	solubility in acetone (solubility; acetone)	solubility in chloroform (solubility; chloroform)	solubility in hexane (solubility; hexane)	solubility in methanol (solubility; methanol)	solubility in methylene chloride (solubility; methylene chloride)	solubility in toluene (solubility; toluene)	solubility in water (solubility; water)
O=[N+]([O-])OCC(CO)(CO)CO[N+](=O)[O-]	-6.6							
O=C(O)C(CO[N+](=O)[O-])(CO[N+](=O)[O-])CO[N+](=O)[O-]		readily soluble	sparingly soluble	insoluble	readily soluble	sparingly soluble	sparingly soluble	readily soluble
